Assay [1] relates to 3T3-L1 adipocytes. The settings on record: for EC50: read-out: EC50 on mouse 3T3-L1 adipocyte, cAMP, at least 3 independent tests; for Rel. A (Relative Activity) on 3T3-L1 adipocyte: relative to GIP. As for the experimental part: Mouse 3T3-L1 precursor adipocytes can be induced to differentiate into mature adipocytes. […] After the cells became full and contacted with each other, DMEM differentiation medium containing 20% FBS, 0.5 mM IBMX, 0.4 ug/mL dexamethasone, and 5 ug/mL insulin was used to induce differentiation of 3T3-L1 adipocyte. After 5 days of induction and cultivation, DMEM medium containing […], 4 ug/ml insulin, and 10 uM rosiglitazone was used to continue induction and cultivation for 3 days. Then, DMEM medium containing 10% FBS was used to continue cultivation for 2-3 days to induce mature 3T3-L1 adipocytes.
The cAMP level produced by the compound on 3T3-L1 adipocytes was determined in this experiment. The tested compound solution was diluted step by step according to a concentration gradient of 3 times, to obtain a total of 10 series of concentration solutions. The solutions were added to induced mature 3T3-L1 adipocytes and incubated at room temperature for 60 minutes. 10 μL detection reagent in the kit was added to each well after drug incubation, and incubated at room temperature for another 60 minutes. […] GraphPad Prism 5 plotting software was used to create compound concentration-effect curves and calculation was performed.

Amino acid sequences for entries named in this document (tags omitted). Residues count along the entry.
UniProt P47871, 26-477: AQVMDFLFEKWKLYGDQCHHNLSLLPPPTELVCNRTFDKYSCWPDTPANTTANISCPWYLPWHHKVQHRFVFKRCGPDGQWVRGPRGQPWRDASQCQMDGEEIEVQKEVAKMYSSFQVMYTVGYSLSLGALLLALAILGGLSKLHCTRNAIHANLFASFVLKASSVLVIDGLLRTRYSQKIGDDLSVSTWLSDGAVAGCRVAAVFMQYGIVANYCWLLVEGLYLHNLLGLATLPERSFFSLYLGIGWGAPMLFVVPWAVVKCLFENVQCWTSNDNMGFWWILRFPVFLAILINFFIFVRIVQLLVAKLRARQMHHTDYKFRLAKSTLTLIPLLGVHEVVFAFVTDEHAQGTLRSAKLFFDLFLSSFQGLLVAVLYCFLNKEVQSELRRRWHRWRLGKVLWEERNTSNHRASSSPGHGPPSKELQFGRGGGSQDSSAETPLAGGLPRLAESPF
UniProt P43220, 24-463: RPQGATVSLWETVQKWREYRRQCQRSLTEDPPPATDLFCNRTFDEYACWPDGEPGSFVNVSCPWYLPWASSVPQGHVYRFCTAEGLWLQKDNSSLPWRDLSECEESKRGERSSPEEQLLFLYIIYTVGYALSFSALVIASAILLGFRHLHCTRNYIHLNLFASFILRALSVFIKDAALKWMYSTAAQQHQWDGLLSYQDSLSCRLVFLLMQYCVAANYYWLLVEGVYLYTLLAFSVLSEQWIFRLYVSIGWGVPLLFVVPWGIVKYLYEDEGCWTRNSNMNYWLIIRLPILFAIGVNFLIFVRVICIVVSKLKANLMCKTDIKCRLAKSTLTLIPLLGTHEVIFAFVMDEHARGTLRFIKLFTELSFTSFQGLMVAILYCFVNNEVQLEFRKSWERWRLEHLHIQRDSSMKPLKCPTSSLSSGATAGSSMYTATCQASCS

In assay [2] the target is T1, Human GIP R (Homo sapiens, UniProt P48546).
T1 construct: expressed in transfected cells; host or cells: CHO
T1 sequence (P48546 22-466): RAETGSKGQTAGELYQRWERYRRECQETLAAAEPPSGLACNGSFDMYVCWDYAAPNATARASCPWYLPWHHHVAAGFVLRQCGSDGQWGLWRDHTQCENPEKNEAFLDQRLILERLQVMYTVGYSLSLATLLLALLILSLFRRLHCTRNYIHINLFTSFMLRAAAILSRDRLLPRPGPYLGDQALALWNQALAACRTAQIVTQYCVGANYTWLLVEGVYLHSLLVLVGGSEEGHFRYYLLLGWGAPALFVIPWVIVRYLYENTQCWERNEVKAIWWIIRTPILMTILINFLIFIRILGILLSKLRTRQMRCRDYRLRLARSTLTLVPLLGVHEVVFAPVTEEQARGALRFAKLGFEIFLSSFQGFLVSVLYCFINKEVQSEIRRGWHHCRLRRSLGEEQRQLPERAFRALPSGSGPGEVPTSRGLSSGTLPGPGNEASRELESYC
Briefly: cAMP (HTRF) activity in CHO cells stably overexpressing GIP receptor. The settings on record: for Human GIP R Rel. A (Relative Activity): EC50 of human GIP / EC50 of compound. It counts as cell-based. The protocol:
(§1) By measuring the cAMP signal response levels of the aforementioned cells, the agonistic activity of individual compound towards the corresponding receptor was determined. The intracellular cAMP content was measured using reagent kit available from Cisbio Corp. based on HTRF (homogeneous time-resolved fluorescence) technology.
(§2) The cell fluid was transferred to 10 ml of HBSS for resuspension, and centrifuged at 1000 rpm for 5 minutes at room temperature.
(§3) 10 μL cell suspension was added to each well in the 384 well plate. […] Using the ECHO liquid transfer system, 100 nL of the prepared compound solution was added to the corresponding cell suspensions in the 384 well plate, rotated and shaken at 1000 rpm for 1 minute to mix evenly, and then incubated at room temperature for 60 minutes. 10 μL of detection reagent was added to each well after drug incubation was completed, and incubation was performed in the kit at room temperature for 60 minutes. […] GraphPad Prism 5 plotting software was used to create compound concentration response curves and EC50 (nM) values was calculated.
Background: Time-resolved FRET reads energy transfer from a long-lived donor to a nearby acceptor.

In assay [3] the target is T2, Human GCG R (Homo sapiens, UniProt P47871).
T2 construct: expressed in transfected cells; host or cells: HEK-293
In words: cAMP (HTRF) activity in HEK-293 cells stably overexpressing human GCG receptor. Format: cell-based. To be noted: for Human GCG R Rel. A (Relative Activity): EC50 of human GCG / EC50 of compound. As for the experimental part: as §1, §2, §3

Assay [4] relates to RIN-m5F cells. Format: cell-based, rat. To be noted: for EC50: cAMP, at least 3 independent tests, read-out: EC50 on RIN-m5F rat pancreatic islet tumor cells; for Rel. A (Relative Activity) on RIN-m5F: relative to GLP-1(7-37). As for the experimental part:
This experiment measured the cAMP level produced by the compound on RIN-mF cells.
Frozen […] cells were placed in a 37° C. constant temperature water bath for rapid thawing and recovery. The cell solution was transferred to 10 ml of HBSS for resuspension, and centrifuged at 1000 rpm for 5 minutes at room temperature.
10 μL cell suspension was added to each well in the 384 well plate. […] Using the ECHO liquid transfer system, 100 nL of the prepared compound solution was added to the corresponding cell suspensions in the 384 well plate, rotated and shaken at 1000 rpm for 1 minute to mix evenly, and then incubated at room temperature for 60 minutes. 10 μL of detection reagent was added to each wells after drug incubation was completed, and incubation was performed for 60 minutes.

Assay [5] addresses Human GLP-1R (Homo sapiens, UniProt P43220). Briefly: cAMP (HTRF) activity in HEK-293 cells stably overexpressing human GLP-1 receptor. It counts as cell-based. The settings on record: for Human GLP-1R Rel. A (Relative Activity): EC50 of human GLP-1 (7-37) / EC50 of compound. Also on record: expressed in transfected cells; host or cells: HEK-293. The protocol: as §1, §2, §3
Assay [6] concerns human primary liver cells. Format: cell-based. To be noted: for EC50: cAMP, at least 3 independent tests, read-out: EC50 on human primary liver cells; for Rel. A (Relative Activity) on human primary liver cells: relative to GCG. As for the experimental part: The cAMP levels produced by compounds on human primary liver cells were determined in this experiment. Human primary liver cells were purchased from Lonza (cell product number HUCPG).
Frozen human primary liver cells were placed in a 37° C. constant temperature water bath for rapid thawing and recovery. The cell solution was transferred to 10 ml of HBSS for resuspension, and centrifuged at 1000 rpm for 5 minutes at room temperature.
10 μL cell suspension was added to each well in the 384 well plate. […] Using the ECHO liquid transfer system, 100 nL of the prepared compound solution was added to the corresponding cell suspensions in the 384 well plate, rotated and shaken at 1000 rpm for 1 minute to mix evenly, and then incubated at room temperature for 60 minutes. 10 μL of detection reagent was added to each well after drug incubation was completed, and incubation was performed for 60 minutes.

Molecules are shown by their SMILES.

Broadly, the EC50 is the midpoint of the concentration-response curve. On to `CC[C@H](C)[C@H](NC(=O)[C@H](Cc1ccccc1)NC(=O)[C@H](C)NC(=O)C(C)(C)NC(=O)[C@H](CCC(N)=O)NC(=O)[C@H](C)NC(=O)[C@H](CCCCNC(=O)COCCOCCNC(=O)COCCOCCNC(=O)CC[C@H](NC(=O)CCCCCCCCCCCCCCCCCCC(=O)O)C(=O)O)NC(=O)[C@H](CCCCN)NC(=O)[C@H](CC(=O)O)NC(=O)[C@H](CC(C)C)NC(=O)[C@](C)(CC(C)C)NC(=O)[C@@H](NC(=O)[C@H](CO)NC(=O)[C@H](Cc1ccc(O)cc1)NC(=O)[C@H](CC(=O)O)NC(=O)[C@H](CO)NC(=O)[C@@H](NC(=O)[C@](C)(Cc1ccccc1)NC(=O)[C@@H](NC(=O)CNC(=O)[C@H](CCC(N)=O)NC(=O)C(C)(C)NC(=O)[C@@H](N)Cc1ccc(O)cc1)[C@@H](C)O)[C@@H](C)O)[C@@H](C)CC)C(=O)N[C@@H](CCC(=O)O)C(=O)N[C@@H](Cc1ccc(O)cc1)C(=O)N[C@@H](CC(C)C)C(=O)N[C@@H](CC(C)C)C(=O)N[C@@H](CCC(=O)O)C(=O)N[C@H](C(=O)NCC(=O)N1CCC[C@H]1C(=O)N[C@@H](CO)C(=O)N[C@@H](CO)C(=O)NCC(=O)N[C@@H](C)C(=O)N1CCC[C@H]1C(=O)N1CCC[C@H]1C(=O)NC1(C(=O)N[C@@H](CO)C(N)=O)CC1)[C@@H](C)O` [Compound 1], for which, in assay [1], the concentration giving a half-maximal response (EC50) came to 7.22 nM and the “Rel. A (Relative Activity) on 3T3-L1 adipocyte” value was determined as 52.65%. Also, in assay [2], the EC50 is 0.015 nM and the “Human GIP R Rel. A (Relative Activity)” value is on record as 1206.67%. Moreover, in assay [3], the “Human GCG R Rel. A (Relative Activity)” value came out at 57.58%. For the same compound, in assay [4], the EC50 amounted to 0.467 nM and the “Rel. A (Relative Activity) on RIN-m5F” value came to 220.99%. In assay [5], the EC50 came out at 0.021 nM and the “Human GLP-1R Rel. A (Relative Activity)” value was found to be 209.52%. Besides, in assay [6], the EC50 turned out to be 1.65 nM and the “Rel. A (Relative Activity) on human primary liver cells” value was 236.10%.

Turning to `CC[C@H](C)[C@H](NC(=O)[C@H](Cc1ccccc1)NC(=O)[C@H](C)NC(=O)C(C)(C)NC(=O)[C@H](CCC(N)=O)NC(=O)[C@H](C)NC(=O)[C@H](CCCCNC(=O)COCCOCCNC(=O)COCCOCCNC(=O)CC[C@H](NC(=O)CCCCCCCCCCCCCCCCCCC(=O)O)C(=O)O)NC(=O)[C@H](CCCCN)NC(=O)[C@H](CC(=O)O)NC(=O)[C@H](CC(C)C)NC(=O)[C@H](Cc1ccccc1)NC(=O)[C@@H](NC(=O)[C@H](CO)NC(=O)[C@H](Cc1ccc(O)cc1)NC(=O)[C@H](CC(=O)O)NC(=O)[C@H](CO)NC(=O)[C@@H](NC(=O)[C@](C)(Cc1ccccc1F)NC(=O)[C@@H](NC(=O)CNC(=O)[C@H](CCC(N)=O)NC(=O)C(C)(C)NC(=O)[C@@H](N)Cc1ccc(O)cc1)[C@@H](C)O)[C@@H](C)O)[C@@H](C)CC)C(=O)N[C@@H](CCC(=O)O)C(=O)N[C@@H](Cc1ccc(O)cc1)C(=O)N[C@@H](CC(C)C)C(=O)N[C@@H](CC(C)C)C(=O)N[C@@H](CCC(=O)O)C(=O)NCC(=O)NCC(=O)N1CCC[C@H]1C(=O)N[C@@H](CO)C(=O)N[C@@H](CO)C(=O)NCC(=O)N[C@@H](C)C(=O)N1CCC[C@H]1C(=O)N1CCC[C@H]1C(=O)NC1(C(=O)N[C@@H](CO)C(N)=O)CC1` [Compound 4], in assay [1], the EC50 amounted to 5.4 nM and the “Rel. A (Relative Activity) on 3T3-L1 adipocyte” value is given as 70.38%. Further, in assay [2], the EC50 was 0.057 nM and the “Human GIP R Rel. A (Relative Activity)” value is given as 317.54%. In addition, in assay [3], the concentration giving a half-maximal response (EC50) worked out at 0.071 nM and the “Human GCG R Rel. A (Relative Activity)” value is listed as 80.28%. Moreover, in assay [4], the EC50 was 0.275 nM and the “Rel. A (Relative Activity) on RIN-m5F” value was found to be 375.27%. For the same compound, the “Human GLP-1R Rel. A (Relative Activity)” value in assay [5] is on record as 107.32%. In addition, in assay [6], the EC50 was determined as 0.957 nM and the “Rel. A (Relative Activity) on human primary liver cells” value was 406.58%.

The values are drawn from patent US20250129135A1, “Multi-Agonist and Use Thereof” (priority 2021, published 2025).
